# Measurements taken from US20230028476A1 (EVOTEC INTERNATIONAL, published 2023).
# Protein sequences, listed by entry. Tags and fused reporters are not part of them. Residues count along the entry.
# UniProt P25942, 21-277: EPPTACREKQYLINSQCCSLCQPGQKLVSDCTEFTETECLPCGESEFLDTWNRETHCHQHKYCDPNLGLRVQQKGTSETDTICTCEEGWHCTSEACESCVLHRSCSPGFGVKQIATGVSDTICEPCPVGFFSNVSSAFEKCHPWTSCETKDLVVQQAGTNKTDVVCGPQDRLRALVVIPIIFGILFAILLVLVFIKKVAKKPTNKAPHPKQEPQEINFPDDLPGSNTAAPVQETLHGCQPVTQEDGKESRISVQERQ
# B1: IFA46 (antibody, human IgG2, kappa)
# light: DIQMTQSPSSVSASVGDRVTITCRASQGIYSWLAWYQQKPGKAPNLLIYTASTLQSGVPSRFSGSGSGTDFTLTISSLQPEDFATYYCQQANIFPLTFGGGTKVEIKRTVAAPSVFIFPPSDEQLKSGTASVVCLLNNFYPREAKVQWKVDNALQSGNSQESVTEQDSKDSTYSLSSTLTLSKADYEKHKVYACEVTHQGLSSPVTKSFNRGECGGGGSGGGGSGGGGSGGGGS[gap - about 150 residues]
# heavy: QVQLVQSGAEVKKPGASVKVSCKASGYTFTGYYMHWVRQAPGQGLEWMGWINPDSGGTNYAQKFQGRVTMTRDTSISTAYMELNRLRSDDTAVYYCARDQPLGYCTNGVCSYFDYWGQGTLVTVSSASTKGPSVFPLAPCSRSTSESTAALGCLVKDYFPEPVTVSWNSGALTSGVHTFPAVLQSSGLYSLSSVVTVPSSNFGTQTYTCNVDHKPSNTKVDKTVERKCCVECPPCPAPPVAGPSVFLFPPKPKDTLMISRTPEVTCVVVDVSHEDPEVQFNWYVDGVEVHNAKTKPREEQFNSTFRVVSVLTVVHQDWLNGKEYKCKVSNKGLPAPIEKTISKTKGQPREPQVYTLPPSREEMTKNQVSLTCLVKGFYPSDIAVEWESNGQPENNYKTTPPMLDSDGSFFLYSKLTVDKSRWQQGNVFSCSVMHEALHNHYTQKSLSLSPGK
# What was measured:
# human CD40 = human CD40 (human, UniProt P25942); experiment: cell-based or functional assay
# [1] = molecular target: human IFN receptor on HEK-Blue IFN-α/β cells (human); experiment: cell-based or functional assay
binder,measurement,setting,value
B1,CD40 EC50 (HEK-Blue CD40L reporter cells),human CD40,0.0863 µg/mL
same,IFNω EC50 (HEK-Blue IFN-α/β reporter cells),[1],0.000493 µg/mL
